According to ChEMBL document CHEMBL1130059, “Neurotrophic 3,9-bis[(alkylthio)methyl]-and-bis(alkoxymethyl)-K-252a derivatives” (J Med Chem, 1997):

Target: Protein kinase C (PKC)
Test: Inhibition of Protein kinase C of Rat brain

Which IC50 does the source give for `COC(=O)[C@@]1(O)C[C@H]2O[C@]1(C)n1c3ccccc3c3c4c(c5c6ccccc6n2c5c31)C(=O)NC4` [K-252A] here?
The IC50 was 0.028 nM.
